System: chondrocytes (C-28/I2)
Assay: toxicity screen, maximum tolerable concentration in chondrocytes
Conditions: 24 hours post-treatment, serum free, microscopy (vacuolation, blebbing, reduced cell count)
Description: A clonal derivative of ATCC-certified normal chondrocytes was used for a study to determine cytokine expression. The parent line was originally derived from costal cartilage of adolescent […]. The cell line used is C-28/I2 accession number CVCL 0187. The cells were immortalized via retroviral vector-mediated SV40 Large T antigen expression. Cells were confirmed negative for mycoplasma contamination and genotyped by STR analysis to verify cell identity. This cell line is widely used as a model for studying normal and pathological cartilage repair mechanisms and inflammation.
The cells were cultured at 37° C. with 5% CO2, DMEM/F12 media supplemented with 10% heat-inactivated fetal bovine serum. Antimicrobials were not added to the media. Cells were maintained between 40 and 80% confluency to avoid terminal differentiation. Cells used for the experiments had been passaged no more than ten times prior to each experiment.
A series of pilot studies were performed to design the final full-scale experiment. First, a toxicity screen for each test compound was performed to establishment maximum tolerable concentrations in this model system. Second, assays were run to establish the optimal means of inducing a pro-inflammatory state in the cell culture system. […]

nicotinamide ribose
maximum tolerable concentration: 1 mM
